Data on 1 compound can be found in patent US10654867B2 (Genentech, Inc., priority 2016, dated 2020).

Chains of the proteins cited; added tags and fusions are not shown.
UniProt P03372, whole entry: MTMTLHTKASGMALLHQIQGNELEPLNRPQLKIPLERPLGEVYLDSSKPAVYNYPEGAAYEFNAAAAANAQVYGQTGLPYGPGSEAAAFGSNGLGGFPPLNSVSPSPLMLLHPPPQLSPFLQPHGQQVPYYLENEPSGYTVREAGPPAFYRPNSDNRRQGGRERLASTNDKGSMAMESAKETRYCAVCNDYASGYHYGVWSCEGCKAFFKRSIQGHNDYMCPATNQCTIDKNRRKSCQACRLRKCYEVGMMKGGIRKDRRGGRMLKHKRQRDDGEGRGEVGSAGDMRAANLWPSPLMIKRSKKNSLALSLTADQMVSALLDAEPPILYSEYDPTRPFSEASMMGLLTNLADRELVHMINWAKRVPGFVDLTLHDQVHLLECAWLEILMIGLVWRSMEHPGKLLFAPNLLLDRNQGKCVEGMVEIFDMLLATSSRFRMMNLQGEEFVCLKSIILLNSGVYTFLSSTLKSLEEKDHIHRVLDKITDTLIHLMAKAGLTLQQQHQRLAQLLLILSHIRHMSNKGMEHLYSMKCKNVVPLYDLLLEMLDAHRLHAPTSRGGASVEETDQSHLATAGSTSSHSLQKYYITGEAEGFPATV

The experiment addresses estrogen receptor alpha (ESR1) in MCF7 breast cancer cells (Homo sapiens, UniProt P03372). Description: Breast Cancer Cell ERa High Content Fluorescence Imaging Degradation Assay (ER-alpha MCF7 HCS).

Each structure is given as a SMILES string. pEC50: −log10 of the molar value.

As for `C[C@H]1CN(CC(C)(C)F)[C@@H](c2c(F)cc(OCCN3CC(CF)C3)cc2F)c2[nH]c3ccccc3c21` (single isomer, unassigned), the “ER-alpha MCF7HCS Sinf” value (4 hours, plateau of the maximal effect, DMSO and fulvestrant define 0% and 100% change in ESR1, Table 1a) was −45%. For the same compound, the negative-log EC50 (pEC50) (read-out: ER-alpha MCF7HCS EC50, 4 hours incubation, inflexion point of curve (Robust Fit), Table 1a) was 7.36.
